Values quoted from earlier work, collected in patent US10179774B2, “Synthesis of chirally purified substituted benzothiazole diamines” (priority 2007, dated 2019).

Tested on: humans
Settings: Boehringer Ingelheim product insert; cited from earlier work

CCCNC1CCc2nc(N)sc2C1 (stereo not shown) [pramipexole]
maximally tolerated dose for humans: 4.5 mg/day
